Results published in paper PMC10419047, “Enzymatic Redox Properties and Cytotoxicity of Irreversible Nitroaromatic Thioredoxin Reductase Inhibitors in Mammalian Cells” (2023).
Read-outs that look alike come from different tables or passages of the source.

Amino acid sequences for entries named in this document (tags omitted). Residues count along the entry.
UniProt P00390, 44-522 limits assumed: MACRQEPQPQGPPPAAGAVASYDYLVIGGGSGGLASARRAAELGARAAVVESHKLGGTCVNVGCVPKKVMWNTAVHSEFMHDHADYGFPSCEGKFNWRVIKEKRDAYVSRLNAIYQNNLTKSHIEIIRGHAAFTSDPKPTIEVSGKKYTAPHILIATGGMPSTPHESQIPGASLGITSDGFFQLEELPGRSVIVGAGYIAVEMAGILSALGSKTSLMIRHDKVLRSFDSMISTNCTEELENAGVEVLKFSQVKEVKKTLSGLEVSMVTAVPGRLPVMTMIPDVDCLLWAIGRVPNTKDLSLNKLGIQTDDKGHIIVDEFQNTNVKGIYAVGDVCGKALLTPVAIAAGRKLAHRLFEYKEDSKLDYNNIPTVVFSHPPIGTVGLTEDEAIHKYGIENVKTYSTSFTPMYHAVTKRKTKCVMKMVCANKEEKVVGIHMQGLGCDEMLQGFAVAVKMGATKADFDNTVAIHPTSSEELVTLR
UniProt P05982, 2-274 limits assumed: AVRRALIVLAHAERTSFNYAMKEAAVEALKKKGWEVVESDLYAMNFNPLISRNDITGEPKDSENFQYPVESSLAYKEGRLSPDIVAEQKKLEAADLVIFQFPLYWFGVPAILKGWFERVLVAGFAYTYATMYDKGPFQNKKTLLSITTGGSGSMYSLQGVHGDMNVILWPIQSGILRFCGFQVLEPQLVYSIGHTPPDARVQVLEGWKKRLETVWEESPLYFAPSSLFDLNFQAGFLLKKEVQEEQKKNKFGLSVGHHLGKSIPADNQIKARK

Assays:
[1] = biological target: human glutathione reductase (HGR) (Homo sapiens, UniProt P00390); assay: Reduction of nitroaromatics by human glutathione reductase (NADPH:oxidase activity); conditions: for NADPH:oxidase activity of HGR in the presence of compound: 0.04 s^−1 without compound
[2] = test system: TrxRs (human TrxR2 and rat TrxR1); assay: Stimulation of NADPH:oxidase activity of TrxRs ('subversive substrate' action)
[3] = Stability at pH 7.0 and 37 °C (spectral shift); conditions: pH 7.0, 37 °C
[4] = Reaction of nitroaromatic compounds with reduced glutathione; conditions: GSH 2.0–10.0 mM, pH 7.0, 25 °C
[5] = Single-electron reduction potential at pH 7.0 (E^1_7); conditions: calculated from log kcat/Km(avge) of P-450R and ADR/ADX reactions by Equation (A1)
MH22a cells [6] = assay: Cytotoxicity in MH22a cells (Trypan blue, cell counting); conditions: for IC50: read-out: cL50 MH22a, concentration causing 50% cell death, 24 h; for cytotoxicity greater than expected from redox cycling activity: MH22a cells
[7] = test system: TrxR in the lysates of MH22a and HCT-116 cells; assay: TrxR activity in cell lysates; conditions: for residual activity of TrxR in cell lysates: both at t = 0 and t = 20 min, 37 °C
[8] = cited from earlier work
MH22a cells [9] = conditions: read-out: MH22a cL50; previous data; cited from earlier work
TrxR = conditions: cited from earlier work
GR = conditions: cited from earlier work
[10] = test system: GR in the lysates of MH22a and HCT-116 cells; assay: GR activity in cell lysates; conditions: 10 µM compound, t = 0 vs 20 min incubation with NADPH; 37 °C
MH22a cells [11] = assay: Modulation of cytotoxicity in MH22a cells by antioxidants, dicoumarol and cytochrome P-450 inhibitors
HCT-116 cells [12] = assay: Growth inhibition of HCT-116 cells (crystal violet)
[13] = biological target: NAD(P)H:quinone oxidoreductase (NQO1) (Rattus norvegicus, UniProt P05982); assay: Reduction of nitroaromatics by NAD(P)H:quinone oxidoreductase; conditions: 0.1 M K-phosphate, pH 7.0, 25 °C
[14] = Solubility limit in the enzymatic reaction mixture; conditions: 0.1 M K-phosphate, pH 7.0, 25 °C
HCT-116 cells [15] = conditions: cited from earlier work
[16] = single-electron reduction midpoint potential, pH 7.0
[17] = read-out: HCT-116 GI50, previous data

O=C(Oc1cc(S(=O)(=O)c2ccccc2)ccc1[N+](=O)[O-])c1ccc(Cl)cc1
NADPH:oxidase activity of HGR in the presence of compound ([1]; 70 µM compound): 0.08 to 0.09 s⁻¹
increase of NADPH:oxidase activity of TrxRs ([2]; 70 µM compound): 2–2.5 times
t1/2 of λmax shift from 280 nm to 316 nm (instability) [3]: ~ 1.5 h
second-order rate constant of reaction with GSH [4]: ~ 0.5 M^−1s^−1
E^1_7(calc.) [5]: −0.326 V
IC50 (MH22a cells [6]): 28 µM
inhibition of TrxR in cell lysates in short-term experiments ([7]; 10 µM compound, up to 20 min): efficiently inhibited

2-Nitrothiophene-5-carboxymorpholide
E^1_7 [8, 16]: −0.305 V
IC50 (MH22a cells [9]): 82 µM

O=[N+]([O-])c1ccc(Cl)c([N+](=O)[O-])c1
NADPH:oxidase activity of HGR in the presence of compound ([1]; 100 µM compound): 0.08 to 0.09 s⁻¹
increase of NADPH:oxidase activity of TrxRs ([2]; 100 µM compound): 2–2.5 times
Residual Activity (%) TrxR (TrxR; A549 cells, 50 µM, 4 h): 30%
Residual Activity (%) TrxR (TrxR; HeLa cells, 50 µM, 4 h): 30%
Residual Activity (%) GR (GR; A549 cells, 50 µM, 4 h): 80%
Residual Activity (%) GR (GR; HeLa cells, 50 µM, 4 h): 100%
time-dependent inhibition of GR in cell lysates [10]: less pronounced
Cell Viability (%) Additions: None (MH22a cells [11]; compound 2.0 µM): 49.3 ± 4.2%
E^1_7(calc.) [5]: −0.285 V
cytotoxicity greater than expected from redox cycling activity (MH22a cells [6]): at least 10 fold
IC50 (MH22a cells [6]): 1.9 µM
cytotoxicity greater than expected from redox cycling activity (HCT-116 cells [12]): at least 10 fold
kcat NQO1 (in parentheses) [13]: ≤ 0.1 s⁻¹

Cc1ccc(S(=O)(=O)c2ccc([N+](=O)[O-])o2)cc1
reduction rate of added cytochrome c relative to the NADPH oxidation rate ([1]; 50 µM cytochrome c, HGR-catalyzed reduction): 60%
kcat HGR ([1]; pH 7.0, 25 °C): ≥ 0.35 s⁻¹
increase of NADPH:oxidase activity of TrxRs ([2]; 70 µM compound): 2–2.5 times
time-dependent inhibition of GR in cell lysates [10]: less pronounced
Cell Viability (%) Additions: None (MH22a cells [11]; compound 1.0 µM): 45.1 ± 3.5%
second-order rate constant of reaction with GSH [4]: 7.2 ± 0.3 M⁻¹ s⁻¹
E^1_7(calc.) [5]: −0.287 V
cytotoxicity greater than expected from redox cycling activity (MH22a cells [6]): at least 10 fold
IC50 (MH22a cells [6]): 1 µM
cytotoxicity greater than expected from redox cycling activity (HCT-116 cells [12]): at least 10 fold
limit of solubility [14]: 70 µM
kcat NQO1 (in parentheses) [13]: ≤ 0.25 s⁻¹
residual activity of TrxR in cell lysates ([7]; 10 µM compound): very small

O=[N+]([O-])c1ccccc1[N+](=O)[O-]
GI50 (HCT-116 cells [15]; [17]): 60 µM
E^1_7 [8, 16]: −0.287 V
IC50 (MH22a cells [9]): 25.4 µM

O=Cc1ccc([N+](=O)[O-])s1
E^1_7 [8, 16]: −0.260 V
IC50 (MH22a cells [9]): 42 µM

O=[N+]([O-])c1ccccc1
GI50 (HCT-116 cells [15]; [17]): ≥ 5000 µM
E^1_7 [8, 16]: −0.485 V
IC50 (MH22a cells [9]): 1800 µM

O=[N+]([O-])c1ccc(/C=N/O)o1
GI50 (HCT-116 cells [15]; [17]): 70 µM
E^1_7 [8, 16]: −0.255 V
IC50 (MH22a cells [9]): 40.5 µM

O=[N+]([O-])c1ccc([N+](=O)[O-])cc1
GI50 (HCT-116 cells [15]; [17]): 40 µM
E^1_7 [8, 16]: −0.255 V
IC50 (MH22a cells [9]): 12 µM

auranofin
suppression of the rate of DTNB reduction in cell lysates ([7]; 2.0 µM, 20 min incubation with NADPH): ~ 95%

CC(=O)c1ccc([N+](=O)[O-])cc1
GI50 (HCT-116 cells [15]; [17]): 400 µM
E^1_7 [8, 16]: −0.355 V
IC50 (MH22a cells [9]): 239 µM

O=C1CN(/N=C/c2ccc([N+](=O)[O-])o2)C(=O)N1
GI50 (HCT-116 cells [15]; [17]): 60 µM
E^1_7 [8, 16]: −0.255 V
IC50 (MH22a cells [9]): 387 µM
IC50 (MH22a cells [6]): 320 µM

O=Cc1ccc([N+](=O)[O-])cc1
GI50 (HCT-116 cells [15]; [17]): 50 µM
E^1_7 [8, 16]: −0.325 V
IC50 (MH22a cells [9]): 200 µM

O=[N+]([O-])c1ccc2c(c1)S(=O)(=O)C=C2
NADPH:oxidase activity of HGR in the presence of compound ([1]; 100 µM compound): 0.08 to 0.09 s⁻¹
increase of NADPH:oxidase activity of TrxRs ([2]; 100 µM compound): 2–2.5 times
Residual Activity (%) TrxR (TrxR; A549 cells, 10 µM, 4 h): 25%
Residual Activity (%) GR (GR; Various human cervical carcinoma cells, 20 µM, 0.5 h): 30–50%
time-dependent inhibition of GR in cell lysates [10]: more pronounced
Cell Viability (%) Additions: None (MH22a cells [11]; compound 2.0 µM): 50.3 ± 5.5%
second-order rate constant of reaction with GSH [4]: 1.1 ± 0.1 M⁻¹ s⁻¹
E^1_7(calc.) [5]: −0.304 V
cytotoxicity greater than expected from redox cycling activity (MH22a cells [6]): at least 10 fold
IC50 (MH22a cells [6]): 1.8 µM
cytotoxicity greater than expected from redox cycling activity (HCT-116 cells [12]): at least 10 fold

O=[N+]([O-])c1ccc(C=NO)s1
GI50 (HCT-116 cells [15]; [17]): 20 µM
E^1_7 [8, 16]: −0.280 V
IC50 (MH22a cells [9]): 145 µM
IC50 (MH22a cells [6]): 118 µM

COc1ccc([N+](=O)[O-])c(S(=O)(=O)c2ccc(Cl)cc2)n1
NADPH:oxidase activity of HGR in the presence of compound ([1]; 100 µM compound): 0.08 to 0.09 s⁻¹
increase of NADPH:oxidase activity of TrxRs ([2]; 100 µM compound): 2–2.5 times
GI50 (HCT-116 cells [15]; read-out: GI50 HCT-116, 48 h): 2.9 µM
Residual Activity (%) TrxR (TrxR; BF16-F10 cells, 2.0 µM, 3 h): 50%
Residual Activity (%) TrxR (TrxR; BF16-F10 cells, 20 µM, 3 h): 10%
Residual Activity (%) TrxR (TrxR; HCT-116 cells, 3.3 µM, 3 h): 20%
time-dependent inhibition of GR in cell lysates [10]: less pronounced
Cell Viability (%) Additions: None (MH22a cells [11]; compound 6.0 µM): 49.9 ± 4.5%
second-order rate constant of reaction with GSH [4]: 4.8 ± 0.3 M⁻¹ s⁻¹
E^1_7(calc.) [5]: −0.365 V
cytotoxicity greater than expected from redox cycling activity (MH22a cells [6]): at least 10 fold
IC50 (MH22a cells [6]): 6.6 µM
cytotoxicity greater than expected from redox cycling activity (HCT-116 cells [12]): at least 10 fold
kcat NQO1 (in parentheses) [13]: 0.10 ± 0.02 s⁻¹
residual activity of TrxR in cell lysates ([7]; 10 µM compound): very small

p-nitropyridine
E^1_7 [8]: −0.19 V

O=C(O)c1ccc([N+](=O)[O-])cc1
GI50 (HCT-116 cells [15]; [17]): ≥ 6000 µM
E^1_7 [8, 16]: −0.425 V
IC50 (MH22a cells [9]): ≥ 6000 µM

O=[N+]([O-])c1cccs1
E^1_7 [8, 16]: −0.390 V
IC50 (MH22a cells [9]): 341 µM
